{"sequences": {"note": "Sequences of proteins named here, by UniProt entry; tags and fusion partners are left off.", "UniProt P61073, whole entry": "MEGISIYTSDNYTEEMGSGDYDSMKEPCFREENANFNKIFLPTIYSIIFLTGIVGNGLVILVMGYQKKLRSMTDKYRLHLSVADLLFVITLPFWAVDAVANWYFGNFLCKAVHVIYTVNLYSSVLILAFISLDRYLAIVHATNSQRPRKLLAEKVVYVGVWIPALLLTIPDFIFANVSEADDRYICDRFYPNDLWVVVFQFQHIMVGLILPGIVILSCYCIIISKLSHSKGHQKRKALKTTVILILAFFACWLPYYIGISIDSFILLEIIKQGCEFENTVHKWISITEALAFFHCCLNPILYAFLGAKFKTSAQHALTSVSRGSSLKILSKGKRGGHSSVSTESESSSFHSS"}, "source": "patent US9314468B2", "about": "“Chemokine receptor modulators” (Altiris Therapeutics, Inc., priority 2008, dated 2016)", "key": {"[1]": {"target": "T1, CXCR4 (Homo sapiens (Human), UniProt P61073)", "experiment": "Functional calcium mobilization assay (SDF-1α induced)", "assay_type": "cell-based", "conditions": "read-out: Ca Flux IC50", "protocol": "Functional modulation of CXCR4 was determined by calcium mobilization assay using leukemic lymphoid CEM cells, which naturally express high levels of CXCR4. Generally, the assay is carried out as follows: Cells are grown in vitro to confluency. On the day of the assay, cells are removed from the incubator, culture medium removed and replaced with a calcium sensitive dye (Calcium3 assay kit; Molecular Devices, Sunnyvale, Calif.). The cells are allowed to dye load for 45-60 min at 37° C. in the cell culture incubator and then allowed to equilibrate to room temperature for no more than 15 min before assay.\nCompound plates were generated containing up to 3% dimethyl sulfoxide in media kept at room temperature. Test compounds were added to the cells at a 1:3 dilution, and calcium mobilization was measured using a Flex Station fluorescence imager (Molecular Devices). This first read was used to determine direct agonist activation of the CXCR4 receptor by the test compounds. […] Full dose response curves were generated daily for SDF-1a to calculate IC50 concentrations. The IC50 values are reported. In cases, where one was not determined, a percent inhibition at the 1 μM concentration was extrapolated.\nFunctional calcium mobilization assay was conducted as described in Example 27."}, "[2]": {"target": "T1, CXCR4", "experiment": "Cellular impedance change induced by SDF-1a (cellular dielectric spectroscopy)", "assay_type": "cell-based", "conditions": "read-out: Antagonist IC50", "protocol": "This assay measures the change in impedance that occurs when cells are stimulated with SDF-1a. Changes in shape and cytoskeleton result in a change of impedance that is dependent on the activation of the CXCR4 receptor. This assay is contracted to MDS Pharma Services and performed as described in http://discovery.mdsps.com/Catalog/Services/Screening/CellKey/AssayDetails.aspx?id=7 (Assay 930070). Briefly, human HeLa cells expressing endogenous CXCR4 are grown in vitro and receptor activation in live cells is measured using cellular dielectric spectroscopy (CDS). EC50 is defined as a greater than 50% change in cellular impedance relative to the EC100 (10 nM SDF-1a) response. IC50 is defined as a greater than 50% inhibition of the cellular impedance change induced by an EC50 concentration of SDF-1a incubation at 30 minutes."}}}
{"smiles": "OCCn1c2ccccc2c2ccnc(CN(CCCN3CCNCC3)[C@H]3CCCc4cccnc43)c21", "values": [{"measurement": "IC50", "setting": "[1]; CEM cells, SDF-1α challenge at EC80-EC90", "value": 56, "unit": "nM"}]}
{"smiles": "OCCn1c2ccccc2c2ccnc(CN(CCCN3CCNCC3)C3CCCc4cccnc43)c21", "note": "(stereo not drawn) [drawing 816]", "values": [{"measurement": "IC50", "setting": "[2]", "value": 12, "unit": "nM"}]}
{"smiles": "OCCn1c2ccccc2c2ccnc(CN(CCCN3CCNCC3)C3CCCc4cccnc43)c21", "note": "(stereo not drawn) [drawing 831]", "values": [{"measurement": "IC50", "setting": "[1]; Table 9, selected compounds", "value": 56, "unit": "nM"}]}
